Measured values reported in patent US9211249B2, “Methods and compositions for transdermal delivery of caffeine in the form of solutions or suspensions” (priority 2013, dated 2015).

Assay: Solubility of caffeine in caffeine-containing compositions containing various helper esters
Details: 10% helper ester in water at 20° C.

With “2-(Dipentylamino)methyl 2-(4-isobutylphenyl)propionate hydrochloride” the “Solubility of caffeine (w/v)” value was over 3%.
